Laboratory results reported in ChEMBL document CHEMBL4627285, “Multi-step parallel synthesis enabled optimization of benzofuran derivatives as pan-genotypic non-nucleoside inhibitors of HCV NS5B” (Bioorg Med Chem Lett, 2020).

Assays:
[1] = Non-nucleoside inhibition of NS5B polymerase in HCV genotype 4a by Taqman probe based RT-PCR analysis
[2] = Non-nucleoside inhibition of NS5B polymerase in HCV genotype 1a by Taqman probe based RT-PCR analysis
[3] = Non-nucleoside inhibition of NS5B polymerase in HCV genotype 2a by Taqman probe based RT-PCR analysis
[4] = Non-nucleoside inhibition of NS5B polymerase in HCV genotype 1b by Taqman probe based RT-PCR analysis
[5] = Non-nucleoside inhibition of NS5B polymerase in HCV genotype 2b by Taqman probe based RT-PCR analysis
[6] = Non-nucleoside inhibition of NS5B polymerase in HCV genotype 3a by Taqman probe based RT-PCR analysis

CNC(=O)c1c(-c2ccc(F)cc2)oc2cc(N(C)S(C)(=O)=O)c(-c3ccc4c(n3)-c3cc5c(F)cccc5n3CO4)cc12 [MK-8876]
EC50 [1]: 1.2 nM
EC50 [2]: 1.6 nM
EC50 [3]: 7.3 nM
EC50 [4]: 2.2 nM
EC50 [5]: 3.9 nM
EC50 [6]: 1.8 nM
